Amino acid sequences for entries named in this document (tags omitted). A change or cut given only in a name is not applied to a line headed by its entry.
UniProt Q62928: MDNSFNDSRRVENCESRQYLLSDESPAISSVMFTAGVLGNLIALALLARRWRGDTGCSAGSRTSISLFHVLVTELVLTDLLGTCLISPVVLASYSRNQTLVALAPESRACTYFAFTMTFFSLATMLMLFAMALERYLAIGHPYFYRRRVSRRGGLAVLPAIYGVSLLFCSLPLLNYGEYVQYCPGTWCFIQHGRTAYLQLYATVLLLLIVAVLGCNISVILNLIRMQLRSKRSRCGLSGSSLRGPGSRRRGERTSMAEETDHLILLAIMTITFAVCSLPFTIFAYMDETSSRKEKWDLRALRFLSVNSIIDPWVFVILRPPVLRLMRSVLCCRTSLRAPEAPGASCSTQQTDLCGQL
UniProt P43114: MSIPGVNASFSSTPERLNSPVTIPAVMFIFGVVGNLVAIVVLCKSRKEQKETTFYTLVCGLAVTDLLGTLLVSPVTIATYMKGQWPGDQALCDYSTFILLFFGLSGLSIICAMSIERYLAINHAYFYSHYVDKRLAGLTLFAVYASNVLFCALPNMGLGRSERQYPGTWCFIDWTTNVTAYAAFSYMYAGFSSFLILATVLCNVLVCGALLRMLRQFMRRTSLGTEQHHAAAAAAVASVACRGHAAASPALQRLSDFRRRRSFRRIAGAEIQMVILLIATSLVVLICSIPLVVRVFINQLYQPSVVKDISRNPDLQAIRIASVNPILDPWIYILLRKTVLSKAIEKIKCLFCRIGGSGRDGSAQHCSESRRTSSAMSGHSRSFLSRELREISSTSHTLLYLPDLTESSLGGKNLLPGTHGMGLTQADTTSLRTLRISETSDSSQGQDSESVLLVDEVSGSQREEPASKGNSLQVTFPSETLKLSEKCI

The target of one assay is rat EP2 receptor (Rattus norvegicus, UniProt Q62928). The assay can be described thus: STEP plate SEAP activity assay for EP2 agonist. The class given is cell-based. The following applies: SEAP luminescence, 6-8 hours of stimulation.
Compound `O=C(O)CCCCCCN1C(=O)CC[C@@H]1/C=C/[C@@H](O)CCC#Cc1ccccc1` [5C′, 7-((R)-2-((3S,E)-3-hydroxy-7-phenylhept-1-en-6-yn-1-yl)-5-oxopyrrolidin-1-yl)heptanoic acid] displayed an EC50 above 1000 nM.

Regarding `CCC#CC[C@H](C)[C@H](O)/C=C/[C@H]1CCC(=O)N1CCc1ccc(C(=O)O)cc1` [9C′, 4-(2-((R)-2-((3S,4S,E)-3-hydroxy-4-methylnon-1-en-6-yn-1-yl)-5-oxopyrrolidin-1-yl)ethyl)benzoic acid], the concentration giving a half-maximal response (EC50) was above 1000 nM.

The compound `C[C@@H](CCCCc1ccccc1)[C@@H](O)/C=C/[C@H]1CC(F)(F)C(=O)N1CCCc1ccc(C(=O)O)s1` [Example 38D, 5-(3-((R)-3,3-difluoro-5-((3R,4S,E)-3-hydroxy-4-methyl-8-phenyloct-1-en-1-yl)-2-oxopyrrolidin-1-yl)propyl)thiophene-2-carboxylic acid] returned an EC50 above 10000 nM.

On to `CCC#C[C@@H](O)/C=C/[C@H]1CCC(=O)N1CCCCCCC(=O)O` [6D′, 7-((R)-2-((S,E)-3-hydroxyhept-1-en-4-yn-1-yl)-5-oxopyrrolidin-1-yl)heptanoic acid], for which the EC50 is above 1000 nM.

Consider `O=C(O)CCCCCCN1C(=O)CC[C@@H]1/C=C/[C@@H](O)C#Cc1ccccc1` [7C′, 7-((R)-2-((R,E)-3-hydroxy-5-phenylpent-1-en-4-yn-1-yl)-5-oxopyrrolidin-1-yl)heptanoic acid], for which the concentration giving a half-maximal response (EC50) is above 1000 nM.

For `CCC#CC[C@H](C)[C@H](O)/C=C/[C@H]1CCC(=O)N1CCCCCCC(=O)O` [2E′, 7-((R)-2-((3S,4S,E)-3-hydroxy-4-methylnon-1-en-6-yn-1-yl)-5-oxopyrrolidin-1-yl)heptanoic acid], the concentration for a half-maximal effect (EC50) is above 1000 nM.

For `C[C@@H](CCCc1ccccc1)[C@H](O)/C=C/[C@H]1CC(F)(F)C(=O)N1CCCCCCC(=O)O` [Example 6D, 7-((R)-3,3-difluoro-5-((3S,4S,E)-3-hydroxy-4-methyl-7-phenylhept-1-en-1-yl)-2-oxopyrrolidin-1-yl)heptanoic acid], the 50% effective concentration (EC50) is above 1000 nM.

`O=C(O)CCCCCCN1C(=O)CC[C@@H]1/C=C/[C@H](O)CCC#Cc1ccccc1` [5D′, 7-((R)-2-((3R,E)-3-hydroxy-7-phenylhept-1-en-6-yn-1-yl)-5-oxopyrrolidin-1-yl)heptanoic acid] showed an EC50 above 5000 nM.

`CCC#C[C@H](O)/C=C/[C@H]1CCC(=O)N1CCCCCCC(=O)O` [6C′, 7-((R)-2-((R,E)-3-hydroxyhept-1-en-4-yn-1-yl)-5-oxopyrrolidin-1-yl)heptanoic acid] gave an EC50 above 1000 nM.

Regarding `CCC#CC[C@H](C)[C@H](O)/C=C/[C@H]1CC(F)(F)C(=O)N1CCCCCCC(=O)O` [Example 2C, 7-((R)-3,3-difluoro-5-((3S,4S,E)-3-hydroxy-4-methylnon-1-en-6-yn-1-yl)-2-oxopyrrolidin-1-yl)heptanoic acid], the concentration giving a half-maximal response (EC50) is above 1000 nM.

The next assay addresses T1, rat EP4 receptor (Rattus norvegicus, UniProt P43114).
Assay: not given
Settings: not given
`C[C@H](CCCc1ccccc1)[C@H](O)/C=C/[C@H]1CC(F)(F)C(=O)N1CCCc1ccc(C(=O)O)s1` [Example 28G, 5-(3-((R)-3,3-difluoro-5-((3S,4R,E)-3-hydroxy-4-methyl-7-phenylhept-1-en-1-yl)-2-oxopyrrolidin-1-yl)propyl)thiphene-2-carboxylic acid] showed an EC50 of 0.016 nM.

The compound `C[C@@H](CCCc1ccccc1)[C@H](O)/C=C/[C@H]1CC(F)(F)C(=O)N1CCCCCCC(=O)O` [Example 6D, 7-((R)-3,3-difluoro-5-((3S,4S,E)-3-hydroxy-4-methyl-7-phenylhept-1-en-1-yl)-2-oxopyrrolidin-1-yl)heptanoic acid] came in with a concentration giving a half-maximal response (EC50) of 0.023 ± 0.019 nM.

A further assay deals with T1, rat EP4 receptor. The assay can be described thus: cell-based.
Settings: not given
In turn, `COC(=O)c1ccc(CCCN2C(=O)C(F)(F)C[C@@H]2/C=C/[C@H](O)[C@H](C)CCCc2ccccc2)s1` [Example 28F, methyl 5-(3-((R)-3,3-difluoro-5-((3R,4R,E)-3-hydroxy-4-methyl-7-phenylhept-1-en-1-yl)-2-oxopyrrolidin-1-yl)propyl)thiphene-2-carboxylate] returned an EC50 above 1000 nM.

By EC50 is commonly meant the concentration giving half of the maximal effect. A low value points to greater potency.

These data come from patent US10729810B2, “Methods, systems, and compositions for promoting bone growth” (Cayman Chemical Company, Inc., priority 2013, dated 2020).
